Test: Pharmacokinetic study in rats after oral administration of the CP extract (UPLC–TQ-MS/MS of plasma)
Type: in vivo, Sprague–Dawley rats
Conditions: rat plasma, single oral gavage of CP extract 10.5 g/kg, n=6, mean ± SD
Protocol: Plasma samples were thawed at room temperature before analysis. Then, 10 μl of IS solution (20 μg/ml) and 200 μl of methanol were added to the plasma sample (90 μl) in a 1.5 ml Eppendorf tube. The mixture was vortexed for 1 min and centrifuged at 12,000×g for 10 min at 4 °C to deproteinize. Thereafter, 2 μl of the supernatant was injected into the UPLC–TQ/MS system for analysis.
Six healthy male Sprague–Dawley rats were fasted for 12 h with free access to water prior to the experiment. The CP extract was administered to rats by oral gavage at a dose of 10.5 g/kg body weight. Blood samples of approximately 0.5 ml were collected at 15 and 30 min and at 1 h, 2 h, 3 h, 4 h, 6 h, 8 h, 10 h, 12 h, and 24 h in heparinized centrifuge tubes from the ophthalmic vein using a sterile capillary tube under anesthesia after oral administration of the CP extract. Following centrifugation at 4000×g for 10 min at 4 °C, plasma samples were transferred to polypropylene tubes and stored at − 80 °C until analysis.
The concentrations of six analytes in plasma at different time points were expressed as mean ± SD, which was calculated from the daily calibration curve. All the pharmacokinetic parameters were processed through non-compartmental analysis using the DAS 3.0 pharmacokinetic program. The maximum plasma concentration (Cmax) and time to reach the maximum concentrations (Tmax) were obtained directly from the curve.

kaempferol-3-O-rhamnoside
AUC0−t: 553.16 ± 270.45 ng·h/mL | AUC0−∞: 614.20 ± 254.97 ng·h/mL | Tmax: 0.42 ± 0.13 h | t1/2: 2.42 ± 1.29 h | Cmax (non-compartmental): 263.55 ± 119.77 ng/mL
